Where a name gives a salt, the structure may show the parent alone. Read-outs that look alike come from different tables or passages of the source.
Target: T1, Porcine DPP-IV (Sus scrofa, UniProt P22411)
T1 construct: purchased Sigma-Aldrich Germany
Experiment: Assay of DPP-IV enzyme inhibitory activity (spectrophotometric, Gly-Pro-pNA cleavage)
Assay type: biochemical
Method: Assay of DPP-IV Enzyme Inhibitory Activity.
The assay method is a modified method (as described by Welch et al, 1998) based on spectrophotometric determination of the product formed by penultimate proline cleaving activity of the enzyme.
Assay protocol involves incubation of the enzyme dipeptidyl peptidase IV with the test substance at 30° C. for 30 min followed by addition of this reaction mixture to the substrate Gly-Pro-pNA that was equilibrated at 30° C. for 2 min. The enzyme cleaves the substrate at penultimate proline and releases p-nitroanilide, the optical density of which is measured at 385 nm. The formation of p-nitroanilide will be reduced in the presence of inhibitor. […] The activity of molecule is expressed in terms of % inhibition. At least three different concentrations were tried out for each of the test substances. The percentage inhibitions for each of the concentrations were plotted and an IC50 of the test compound was worked out. The enzyme inhibitory activity of different test compounds were compared based on the IC50 values.
The percentage inhibition % I, is calculated using the formula:
% I=[(1−vi/v0)]*100 where vi and v0 are the Vmax values with and without the test substance, respectively.
Substrate solution: 0.5 mM in 45 mM phosphate buffer
Substrate used: Gly-Pro-p-nitroanilide (Source: Sigma-Aldrich Co. Germany)
3.288 mg substrate in 1 ml 45 mM phosphate buffer was prepared as stock solution. 0.25 ml of this stock solution was diluted to 5 ml to get 0.5 mM substrate solution (90 μl to be added in each well). The stock solution of the substrate was used within three days of preparation.
Enzyme solution: Porcine DPP-IV (Sigma-Aldrich Germany) was used throughout the study. 0.4 mU in 80 μl of Tris. HCl buffer was prepared. Fresh solutions were prepared everyday for the assays.
Various concentrations of inhibitor were used: 0.391 μM, 0.781 μM, and 3.125 μM. Solutions of inhibitor were prepared and used on the same day.
Different concentrations of inhibitor (compound 95), vehicle, substrate and enzyme were prepared as per standard procedures. 280 μl of enzyme solution (0.4-mU/80 μl in Tris HCl buffer) was added to the eppendorf containing 70 μl solution of inhibitor or vehicle and mixed. This reaction mixture was incubated for 30 min at 30° C. The 96 well plate containing substrate solution was thermally equilibrated in the spectrophotometer for 2 min at 30° C. Later 100 μl of the enzyme-inhibitor pre-incubation solution was added to respective wells in a 96 well plate. Each concentration of the inhibitor was tested in triplicates.
The rate of change in UV absorbance (in presence of various concentrations of the inhibitor) was measured at 385 nm, with respect to wells containing only 0.5 mM substrate in 45 mM phosphate buffer as blank at every 10 min for 2 hours after adding enzyme-inhibitor mixture to wells containing substrate solution.

By UniProt entry, the sequences of proteins in these tests, tags left out. Where a name states a change or a piece, a line headed by the entry shows the natural chain unless it says otherwise.
UniProt P22411: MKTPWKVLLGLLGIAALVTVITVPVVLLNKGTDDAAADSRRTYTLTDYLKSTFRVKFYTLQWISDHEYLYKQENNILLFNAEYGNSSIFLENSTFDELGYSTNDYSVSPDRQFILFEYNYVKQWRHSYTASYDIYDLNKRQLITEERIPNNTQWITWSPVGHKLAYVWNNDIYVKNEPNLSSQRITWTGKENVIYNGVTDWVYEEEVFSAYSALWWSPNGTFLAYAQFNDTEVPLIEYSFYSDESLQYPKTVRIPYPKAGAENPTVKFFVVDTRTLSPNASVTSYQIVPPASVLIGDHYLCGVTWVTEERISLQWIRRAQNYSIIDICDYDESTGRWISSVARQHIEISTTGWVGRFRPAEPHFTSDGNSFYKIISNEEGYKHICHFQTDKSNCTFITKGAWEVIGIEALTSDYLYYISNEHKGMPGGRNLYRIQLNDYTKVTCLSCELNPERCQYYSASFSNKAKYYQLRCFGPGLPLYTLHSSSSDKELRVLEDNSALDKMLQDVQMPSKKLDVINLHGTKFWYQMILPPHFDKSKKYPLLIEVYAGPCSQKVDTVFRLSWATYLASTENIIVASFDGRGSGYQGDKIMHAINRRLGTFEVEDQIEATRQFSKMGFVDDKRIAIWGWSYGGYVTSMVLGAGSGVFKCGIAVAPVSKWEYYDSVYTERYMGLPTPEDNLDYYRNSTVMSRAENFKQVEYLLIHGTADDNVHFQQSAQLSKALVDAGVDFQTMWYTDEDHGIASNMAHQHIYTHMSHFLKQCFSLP

[1] = Porcine DPP-IV, Gly-Pro-pNA substrate, 30° C., mean ± SD of three experiments except compound Nos. 133 & 139, read-out: IC50 (μM) Mean ± SD, inhibitory activity on DPP-IV enzyme activity

Compound | IC50 [1] | IC50 (read-out: dipeptidyl peptidase-IV inhibitory IC50's in the range)
N#CC1CSCN1C(=O)CN(N)C1CCN(CC(=O)Nc2cccnc2Cl)CC1 (centres unmarked) [compound 141, 3-[1-oxo-2-(1-(1-(2-oxo-2-(2-chloropyridin-3-yl)aminoethyl)piperidin-4-yl))hydrazino]ethyl-4-cyano thiazolidine, trihydrochloride] | 0.144 ± 0.003 µM | 
N#CC1CSCN1C(=O)CN(N)C1CCN(CC(N)=O)CC1 (centres unmarked) [compound 118] | 0.817 ± 0.04 µM | 
N#CC1CSCN1C(=O)CN(N)C1CCN(CC(=O)Nc2ccc(Cl)cc2)CC1 (centres unmarked) [Compound No. 105, 3-[1-oxo-2-[1-(1-(2-oxo-2(4-chlorophenyl)aminoethyl)piperidin-4-yl)]hydrazino]ethyl-4-cyanothiazolidine bis-trifluoroacetate] | 0.258 ± 0.027 µM | 
N#CC1CSCN1C(=O)CN(N)C1CCN(CC(=O)Nc2ccc3c(c2)OCCO3)CC1 (centres unmarked) [Compound No. 104, 3-[1-oxo-2-[1-(1-(2-oxo-2(2,3dihydrobenzo(1,4)dioxan-6-yl)aminoethyl)piperidin-4-yl)]hydrazino]ethyl-4-cyano-thiazolidine bis-trifluoroacetate] | 0.222 ± 0.023 µM | 0.088 to 0.25 µM
N#CC1CSCN1C(=O)CN(N)C1CCN(C(=O)Cc2cccnc2)CC1 (centres unmarked) [compound 137, 3-[1-oxo-2-(1-(1-(3-pyridylacetyl)piperidine-4-yl))hydrazino]ethyl-4-cyanothiazolidine, bis-trifluoroacetate] | 0.667 ± 0.062 µM | 
N#C[C@H]1CSCN1C(=O)CN(N)C1CCN(CC(=O)Nc2ccc(Cl)cn2)CC1 [compound 116, 3-[1-oxo-2-(1-(1-(2-oxo-2-(5-chloropyridin-2-yl)aminoethyl)piperidin-4-yl)) hydrazino]ethyl(s)-(+)-4-cyanothiazolidine tris-trifluoroacetate] | 4.1 ± 0.4 µM | 

The remaining molecules from weak to strong by IC50 [1], led by results:

IC50 [1] | IC50 (read-out: dipeptidyl peptidase-IV inhibitory IC50's in the range) | Compound
0.71 ± 0.06 µM |  | N#Cc1ccc(CN2CCC(N(N)CC(=O)N3CSCC3C#N)CC2)cc1 (centres unmarked) [Compound No. 52, 3-[1-Oxo-2-(1-(1-(4-cyanophenylmethyl)-piperidin-4-yl) hydrazino)]ethyl-4-cyanothiazolidine bis trifluoroacetate]
0.547 ± 0.045 µM |  | N#CC1CSCN1C(=O)CN(N)C1CCN(CC(=O)Nc2ccc(Cl)cc2)CC1 (centres unmarked) [compound 143, 3-[1-oxo-2-(1-(1-(2-oxo-2-(4-chlorophenyl)aminoethyl)piperidin-4-yl))ydrazino]ethyl-4-cyano thiazolidine, dihydrochloride]
0.415 ± 0.03 µM |  | N#CC1CSCN1C(=O)CN(N)C1CCN(CC(=O)NCCc2cccs2)CC1 (centres unmarked) [compound 127, 3-[1-oxo-2-(1-(1-(2-oxo-2-(2-(thiophene-2-yl)ethyl)aminoethyl)piperidine-4-yl))hydrazino]ethyl-4-cyanothiazolidine, bis-trifluoroacetate]
0.119 ± 0.015 µM |  | N#CC1CSCN1C(=O)CN(N)C1CCN(CC(=O)Nc2cccnc2Cl)CC1 (centres unmarked) [compound 121]
